Assay results taken from BindingDB's records for doi:10.1124/jpet.102.046318 (Georgetown University, 2003).

Amino acid sequences for entries named in this document (tags omitted).
UniProt P31652, whole entry: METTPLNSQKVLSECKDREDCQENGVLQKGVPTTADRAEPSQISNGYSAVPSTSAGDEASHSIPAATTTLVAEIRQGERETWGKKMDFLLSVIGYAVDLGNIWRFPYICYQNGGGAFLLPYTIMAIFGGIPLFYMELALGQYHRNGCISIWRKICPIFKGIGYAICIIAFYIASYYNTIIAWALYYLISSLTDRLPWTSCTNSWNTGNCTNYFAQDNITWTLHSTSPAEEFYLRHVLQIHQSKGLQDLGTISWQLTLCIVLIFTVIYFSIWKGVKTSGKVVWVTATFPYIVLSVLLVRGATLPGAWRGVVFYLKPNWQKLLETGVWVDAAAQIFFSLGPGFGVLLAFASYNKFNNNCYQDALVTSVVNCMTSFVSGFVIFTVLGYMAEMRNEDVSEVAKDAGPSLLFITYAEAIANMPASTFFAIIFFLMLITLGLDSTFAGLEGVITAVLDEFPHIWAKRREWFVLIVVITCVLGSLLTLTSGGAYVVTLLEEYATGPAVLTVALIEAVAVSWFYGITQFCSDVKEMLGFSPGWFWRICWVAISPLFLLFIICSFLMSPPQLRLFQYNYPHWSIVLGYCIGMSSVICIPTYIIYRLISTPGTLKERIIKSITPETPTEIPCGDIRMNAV

Target: Sodium-dependent serotonin transporter (Rattus norvegicus, UniProt P31652)

SMILES: COC(=O)[C@H]1[C@@H](OC(=O)c2ccccc2)C[C@@H]2CC[C@H]1N2C [NSC_446220]
- Ki: 177 nM
